Earlier results in patent US20130338178A1, “SIRTUIN MODULATORS AS INHIBITORS OF CYTOMEGALOVIRUS” (THE TRUSTEES OF PRINCETON UNIVERSITY, priority 2011, published 2013).

Biological target: T1, SIRT1 (Homo sapiens, UniProt Q96EB6)
T1 sequence (Q96EB6 1-747): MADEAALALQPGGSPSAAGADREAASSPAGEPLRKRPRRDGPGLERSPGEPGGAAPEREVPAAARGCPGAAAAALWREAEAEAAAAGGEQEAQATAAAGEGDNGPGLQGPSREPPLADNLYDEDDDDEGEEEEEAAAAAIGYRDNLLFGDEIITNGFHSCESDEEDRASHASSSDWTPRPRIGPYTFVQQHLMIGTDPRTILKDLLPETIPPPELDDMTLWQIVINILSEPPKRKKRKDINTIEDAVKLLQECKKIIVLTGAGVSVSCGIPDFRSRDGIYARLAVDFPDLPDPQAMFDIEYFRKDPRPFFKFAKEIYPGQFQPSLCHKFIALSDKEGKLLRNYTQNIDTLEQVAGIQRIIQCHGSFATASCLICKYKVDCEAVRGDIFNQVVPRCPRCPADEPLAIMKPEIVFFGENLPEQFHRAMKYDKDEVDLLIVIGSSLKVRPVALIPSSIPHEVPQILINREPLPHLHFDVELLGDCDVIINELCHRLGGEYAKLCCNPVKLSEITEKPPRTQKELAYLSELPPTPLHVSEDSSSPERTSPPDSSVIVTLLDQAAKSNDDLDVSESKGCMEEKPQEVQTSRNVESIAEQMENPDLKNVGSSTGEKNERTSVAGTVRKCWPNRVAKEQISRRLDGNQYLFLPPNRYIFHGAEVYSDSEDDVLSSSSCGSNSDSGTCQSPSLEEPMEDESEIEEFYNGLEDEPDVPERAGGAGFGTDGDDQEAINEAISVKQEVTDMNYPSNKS
Settings: SIRT1 preincubated with NAD+ and compound; means ± SD; cited from earlier work

## CCCC(=O)CC(=O)NCCCC[C@H](NC(=O)OCc1ccccc1)C(=O)Nc1ccccc1 [2x]
  IC50: 56 ± 5.3 µM
